From patent publication US20250264455 come the findings set out here.

This data set has as its target T1, QtEnc^FLAG.
T1 chain: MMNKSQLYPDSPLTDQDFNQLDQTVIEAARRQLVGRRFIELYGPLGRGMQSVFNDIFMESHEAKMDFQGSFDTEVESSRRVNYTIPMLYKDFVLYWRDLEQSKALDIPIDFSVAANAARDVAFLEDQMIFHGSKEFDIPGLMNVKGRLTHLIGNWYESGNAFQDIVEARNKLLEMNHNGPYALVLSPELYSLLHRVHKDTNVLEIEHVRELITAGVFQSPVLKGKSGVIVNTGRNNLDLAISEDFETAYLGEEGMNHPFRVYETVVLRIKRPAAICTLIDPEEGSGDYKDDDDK

B1: DD-CgPPK2b-QtSig (protein)
chain: [left out - about 100 residues]GSGVGKLPIMAETNENDLPVIDLAQIEGYVVDDSDEDDPVLLRPDGTPIETWREDFPYEERVTREDYEKVKRSLQIELLKWQNWTKETGQRHIILFEGRDAAGKGGTIKRFNEHLNPRGARTVALEKPSPRESTSWYFQRYIQHFPAAGEIVFFDRSWYNRSGVERVMGFCTESQHAEFLREVPMLENMILGSGISLTKFWFSVTRKEQRTRFAIRQVDPVRQWKLSPMDLASLDRWDDYTRAKEEQFRYTDTDESPWITIKSNDKKRARINAMRYVLSKFDYTDKDYELVGEPDPKVVLRGRDQIGDGGGGSGGGGSKGFTVGSLIQ
Turning to B1, the “DAPI-stained polyP fluorescence at the encapsulin band on Clear-Native PAGE” value was “The UV fluorescence imaging of the gel (upper panel) reveals bands indicating intraluminal polyP accumulation. No UV fluorescent bands are observed when no cargo protein is co-expressed”.
